# A selection: hits, their analogues and other compounds. The true share with any hit is near 0.34%.
# Eya2 phos inh – Eya2 (human) phosphatase inhibition | recombinant Eya2, OMFP fluorescence dephosphorylation (OMFP is methylfluorescein phosphate) | AID 488837 | O00167 | Potency, µM (highest dose often 76.9 µM), usual class: inhibitors | hit rate 0.006% among 330,000
#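 Eya2 protein (added as 0.2 uM solution) was preincubated with compound for 10 min at ambient temperature in 50 mM HEPES pH 7.5, 50 mM NaCl, 5 uM MgCl2, 0.05% BSA, 1 mM DTT. OMFP (added at 50 uM) then reacted 10 min; fluorescence read at 485/525 nm.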
# Rango complex inh – Rango-importin beta binding inhibition; Q14974; Rango CFP/YFP FRET sensor + importin beta, 45 min; Potency, µM (series often up to 92.2 µM); hit rate 0.031% among 340,000; AID 540263; calls by dose curve; note: nearly all actives have a fitted effect of over 15% in size
#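 FRET biosensor Rango (snurportin 1 IBB between N-terminal EYFP and C-terminal Cerulean), 50 nM in PBS/1 mM DTT/0.02% Tween-20/0.1% BSA, preincubated 5 min RT with compound; 0.125 microM importin beta added, 45 min RT, CFP/YFP FRET ratio read.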
# Vif-APOBEC3G blk – inhibitors of Vif-APOBEC3G interaction. HeLa A3G-eYFP + Vif (tagged APOBEC3G with the HIV-1 protein that degrades it), YFP fluorescence, overnight. hit rate 0.076% among 410,000. AID 602310. Potency, µM (doses to about 46.1 µM), usual class: inhibitors. Q9HC16; note: nearly all actives have a fitted effect of over 60% in size
#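 HeLa cells stably expressing Vif and C-terminally eYFP-tagged A3G, seeded overnight at 37 deg C, then exposed to compound by pintool overnight at 37 deg C. Rise in yellow fluorescence (Ex 488/Em 500-530, Acumen) marks blocked Vif-driven A3G degradation.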
# ASM inhibitor – blocks human secretory acid sphingomyelinase. P17405. placental ASM, HMU-PC fluorogenic substrate, 60 min. Potency, µM (highest dose often 57.5 µM), actives largely listed as inhibitors. hit rate 0.006% among 340,000. AID 504937
#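 Human placenta-derived ASM preincubated with compound 10 min at room temperature, then reacted with 9 uM (final) fluorogenic HMU-PC substrate for 60 min at 37 C. Stop solution raises pH to 10; fluorescence read at Ex 386/Em 447 nm.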
# Vif-APOBEC3F blk – blocks the Vif interaction with APOBEC3F; hit rate 0.2% among 390,000; AID 602313; HeLa A3F-eYFP + Vif (tagged APOBEC3F with the HIV-1 protein that degrades it), YFP fluorescence increase; Potency, µM (doses to about 46.1 µM); note: nearly all actives have a fitted effect of over 65% in size
#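 HeLa cells stably expressing Vif plus C-terminally eYFP-tagged A3F were seeded, incubated overnight at 37 deg C, dosed with compound, incubated overnight again at 37 deg C. Yellow fluorescence (Ex 488/Em 500-530) reported blocked Vif-mediated A3F-eYFP degradation.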
# Rango dissoc inh – inhibition of RanGTP-driven Rango-importin beta dissociation; O95149+P62826; Biochemical FRET Rango-importin beta, RanGTP-induced dissociation; Potency, µM (series often up to 46.1 µM); hit rate 0.071% among 340,000; calls by dose curve; note: nearly all actives have a fitted effect of over 45% in size
#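 Rango FRET biosensor (snurportin-1 IBB flanked by N-terminal EYFP and C-terminal CFP10) at 0.1 uM, with 0.25 uM importin beta in PBS, 1mM DTT, 0.02% Tween-20, 0.1% BSA. 0.6 uM Ran, 2mM GTP and 0.2 uM RCC1 were then added for 45 min at room temperature. Inhibition read as loss of FRET rise.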
# Numbers stand for hits; i = inactive; ? = inconclusive; nt = not tested or not shown. Unless noted, calls come from the whole dose curve; as a rule, active = well fitted curve in the direction sought with a large enough effect; inconclusive = small, poorly fitted or top-dose-only effect, or another doubt; inactive = no such curve, though single readings can be large; an effect the other way counts as inactive or inconclusive.
SMILES,Eya2 phos inh,Rango complex inh,Vif-APOBEC3G blk,ASM inhibitor,Vif-APOBEC3F blk,Rango dissoc inh
C=C[C@@H]1c2cc(C)ccc2N(S(=O)(=O)c2ccc(C)cc2)[C@H](c2ccc(C(C)(F)F)cc2)C1(C#N)C#N,nt,nt,i,nt,nt,nt
C=C(C(=O)c1ccccc1)C(C)C(=C)C(=O)c1ccccc1,i,i,5µM,i,?,i
C=C(C(=O)c1ccccc1)C(c1ccccc1)C(C)C(=O)c1ccccc1 (stereo unspecified),i,i,i,i,i,i
Cc1cc(-c2ccc(S(=O)(=O)Nc3ccc(Cl)cc3C)cc2)on1,nt,nt,i,nt,i,nt
COC(=O)c1ccc(NCc2cc(O)ccc2O)cc1O,nt,18µM,?,i,?,i
COCCNC(=S)N/N=C(\C)c1ccc(OC(F)F)cc1,i,i,i,i,25µM,i
COCCNC(=S)N/N=C(\C)c1ccc(OC)cc1,i,i,i,i,i,i
COCCNC(=O)C1(C(F)(F)F)C/C(=C/CCO)CCCO1 (stereo unspecified),nt,nt,i,nt,nt,nt
O=C1/C(=C/c2cccs2)Sc2ccccc21,i,?,i,i,i,18µM
O=C1Nc2ccccc2S/C1=C/c1cccs1,i,?,i,i,?,?
COc1cccc(N=C2NC(=O)/C(=C/c3cc([N+](=O)[O-])ccc3O)S2)c1,i,?,?,i,25µM,?
Cc1ccc(S(=O)(=O)/N=C2/NC(=O)/C(=C/c3cc([N+](=O)[O-])ccc3O)S2)cc1,i,?,i,i,?,?
O=C1NC(=Nc2ccccc2Cl)S/C1=C\c1cc([N+](=O)[O-])ccc1O,i,?,13µM,?,?,?
COc1ccc(N=C2NC(=O)/C(=C/c3ccc(O)c(OC)c3)S2)cc1,i,?,?,i,?,?
CCCN1CCC(=O)N(CCC#N)CC1,nt,nt,i,nt,nt,nt
C/C(=N\Nc1nccnc1Cl)c1ccc(Cl)c(Cl)c1,i,i,i,i,25µM,i
C/C(=N\Nc1nccnc1Cl)c1ccc(O)cc1,i,i,i,i,i,i
COc1ccc2c(c1)c1nc3ccccc3nc1n2Cc1ccc(OC)c(OC)c1,i,?,?,i,25µM,i
CCOc1ccc(Cn2c3ccc(OC)cc3c3nc4ccccc4nc32)cc1OC,i,i,?,i,?,i
O=[N+]([O-])c1ccc(O/N=[N+](\[O-])N2CCN(c3ncccn3)CC2)c([N+](=O)[O-])c1,nt,nt,i,nt,nt,nt
CCN1C=C(Cc2ccccc2C)C2=C(C1)C(c1ccccc1C)C(C#N)=C(N)O2 (stereo unspecified),i,?,i,i,i,8.2µM
CC(=O)NC1=CC(=O)c2nonc2C1=O,nt,nt,i,nt,nt,nt
COc1ccc(NC(=O)CCCc2ccccc2)c(OC)c1,i,i,i,i,i,16µM
Cc1cc(Cn2cnc3c(cnn3C(C)(C)C)c2=O)ccc1F,nt,nt,i,nt,nt,nt
COc1cc(/C=C2\SC(N)=NC2=O)cc(Br)c1O,i,?,11µM,i,?,?
SMILES,Eya2 phos inh,Rango complex inh,Vif-APOBEC3G blk,ASM inhibitor,Vif-APOBEC3F blk,Rango dissoc inh
COc1ccc(/C=C2\SC(N)=NC2=O)cc1,i,i,i,i,i,i
NC(N)=N/N=C/c1ccc(OCc2ccccc2Cl)cc1,35µM,i,i,?,i,i
CC(C)(C)n1ncc2c(=O)n(Cc3c(F)ccc(F)c3Cl)cnc21,nt,nt,i,nt,nt,nt
Fc1ccc(Br)cc1C1C=C(c2ccc(Br)s2)Nc2ncnn21 (stereo unspecified),i,?,?,i,22µM,?
COc1ccccc1NC(=O)c1c(NC(=O)c2ccco2)sc2c1CCC(C(C)(C)C)C2 (stereo unspecified),nt,nt,i,nt,i,nt
COc1ccccc1NC(=O)c1c(NC(=O)c2ccco2)sc2c1CCC2,i,?,i,i,i,21µM
Nc1nc(Br)c2ccccc2c1-c1ccccc1,?,?,i,i,i,13µM
Nc1nc(Br)c2c(F)cccc2c1-c1ccc(Cl)cc1,i,i,i,i,i,i
Brc1cccc[n+]1CCC[n+]1ccccc1Br,nt,nt,i,nt,nt,nt
CCOC(=O)c1c(NC(C)=O)sc2c1CCC(C=O)=C2Sc1ccccc1,i,?,?,i,?,15µM
O=C(C[n+]1csc2ccccc21)c1cccc([N+](=O)[O-])c1,nt,nt,i,nt,nt,nt
Cc1ccc(-c2nc(Nc3cccc(C)c3)sc2CC(=O)O)cc1,i,?,i,i,?,i
O=C(O)Cc1sc(NC2CCCCC2)nc1-c1ccc(Cl)cc1,i,i,i,i,25µM,i
Nc1c(N=Nc2ccc([N+](=O)[O-])cc2)c(S(=O)(=O)O)cc2cc(S(=O)(=O)O)c(/C=C/c3ccccc3)c(O)c12,nt,nt,i,nt,nt,nt
Cc1ccc(Cl)cc1N1CCN(C(=O)c2ccc3c(c2)N(Cc2ccccc2)CCS3)CC1,nt,nt,i,nt,i,nt
Cc1cccc(C)c1NC(=O)COC(=O)c1ccc2[nH]c3c(c2c1)CCCC3,i,?,i,i,?,23µM
COc1ccc(-c2cc3ncc(C)n3c(Nc3ncccc3C(N)=O)n2)cc1OC,i,nt,nt,nt,nt,nt
CCCCn1c(N)c(N(CC(C)C)C(=O)Cc2ccc(S(=O)(=O)N3CCOCC3)s2)c(=O)[nH]c1=O,nt,?,?,i,25µM,?
CCCCn1c(N)c(N(CCC(C)C)C(=O)Cc2ccc(S(=O)(=O)N3CCOCC3)s2)c(=O)[nH]c1=O,i,i,i,i,i,i
CC1CCCCN1C(=O)c1cnn2c(C(F)(F)F)cc(-c3ccco3)nc12 (stereo unspecified),i,?,i,i,i,9.2µM
CN(C)CCNc1oc(COc2ccc(Cl)cc2Cl)nc1C#N,i,?,i,i,i,16µM
N#C/C(=C\c1ccc(N2CCOCC2)o1)C(=O)NCCc1ccccc1,?,?,i,i,22µM,?
CCCN1C(=O)/C(=C/c2nc3ccccc3c(=O)[nH]2)c2ccccc21,i,?,i,i,i,?
CC(C)N1C(=O)/C(=C\c2nc3ccccc3c(=O)[nH]2)c2ccccc21,i,?,i,32µM,i,?
CC1=C(C(=O)Nc2ccccc2)C(c2ccc(C)cc2)N=C(Nc2nc3ccccc3o2)N1 (stereo unspecified),i,i,?,i,10µM,i
CC1(C)CC(=O)C2=C(C1)NC(Nc1nc3ccccc3o1)=NC2c1ccccc1Cl (stereo unspecified),nt,nt,i,nt,nt,nt
COc1cccc(/C=C2/CN(C)CC3=C2OC(N)=C(C#N)C3c2cccc(OC)c2)c1 (stereo unspecified),i,?,i,i,i,21µM
COc1cccc(C2C(C#N)=C(N)OC(C(C)(C)C)=C2C#N)c1 (stereo unspecified),i,i,i,i,i,i
Cc1cnnc2ccccc12,nt,nt,i,nt,nt,nt
CCOC(=O)c1cc2n(c1/N=C/N(C)C)-c1ccccc1C2=O,i,?,?,i,22µM,?
